Values quoted from earlier work, collected in US20120046224A1, “TREATMENT OF DIABETES AND METABOLIC SYNDROME” (NORDIC BIOSCIENCE A/S, priority 2009, published 2012).

Test system: rat hepatocytes
Conditions: cited from earlier work

calcitonin gene related peptide
effect on rat hepatocytes and other cells: little effect
